Experimental data: US5227488A, “Aza spiro decane and use thereof in treating CNS disorders” (Novo Nordisk A/S, priority 1989, dated 1993)

Protein sequences, listed by entry. Tags and fused reporters are not part of them.
UniProt P28564, whole entry: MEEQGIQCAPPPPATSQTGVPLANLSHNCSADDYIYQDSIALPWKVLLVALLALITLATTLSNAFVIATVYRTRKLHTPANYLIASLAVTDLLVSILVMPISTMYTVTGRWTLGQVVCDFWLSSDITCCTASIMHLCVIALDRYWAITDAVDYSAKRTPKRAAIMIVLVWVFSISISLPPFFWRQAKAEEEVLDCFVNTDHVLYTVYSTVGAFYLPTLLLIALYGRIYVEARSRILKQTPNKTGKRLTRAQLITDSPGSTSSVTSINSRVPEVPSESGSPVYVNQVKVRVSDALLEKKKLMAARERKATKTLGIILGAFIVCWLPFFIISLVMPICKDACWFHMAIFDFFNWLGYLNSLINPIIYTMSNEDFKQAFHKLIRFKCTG
UniProt P19327, whole entry: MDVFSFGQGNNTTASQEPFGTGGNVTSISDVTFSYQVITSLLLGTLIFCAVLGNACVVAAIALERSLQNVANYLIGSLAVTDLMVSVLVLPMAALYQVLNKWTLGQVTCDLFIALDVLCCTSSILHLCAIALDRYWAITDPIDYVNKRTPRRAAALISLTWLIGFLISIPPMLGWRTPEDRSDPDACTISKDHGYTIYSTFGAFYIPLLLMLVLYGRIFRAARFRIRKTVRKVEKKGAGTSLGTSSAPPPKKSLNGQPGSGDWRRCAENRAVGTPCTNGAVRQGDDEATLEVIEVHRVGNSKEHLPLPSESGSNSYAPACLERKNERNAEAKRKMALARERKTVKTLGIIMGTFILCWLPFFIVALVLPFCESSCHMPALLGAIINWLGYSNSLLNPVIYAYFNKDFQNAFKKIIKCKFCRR

Columns and labels:
5-HT1B = target: T1, 5-HT1B (Rattus norvegicus, UniProt P28564); experiment: Receptor binding in vitro, 5-HT1B (3H-5-HT displacement, with 50 nM 8-OH-DPAT)
T1 construct: from tissue; host or cells: rat brain: frontal cortex, hippocampus
Protocol: (§1) Compounds of the general formula (I) were tested for binding to 5-HT receptors and compared with known ligands by the following procedure:
(§2) Rat brain tissue (as specified in the table hereinafter) was homogenized using a Polytron homogenizer. The final pellet was resuspended in 125 vol (tissue wet weight) of buffer.
(§3) In all assays incubation was carried out for 10 min at 37° C.
Labelling of the 5-HT1B receptor was complicated by the fact that the available ligand ^3 H-5-HT is nonselective.
(§4) Detailed conditions for the receptor binding assay in vitro are tabulated below.

5-HT1A = target: T2, 5-HT1A (Rattus norvegicus, UniProt P19327); experiment: Receptor binding in vitro, 5-HT1A (3H-8OH-DPAT displacement)
T2 construct: from tissue; host or cells: rat brain: frontal cortex, hippocampus
Protocol: as §1, §2, §3, §4

| SMILES | IC50 (5-HT1B) [nM] | IC50 (5-HT1A) [nM] |
| --- | --- | --- |
| CCCN(CCC)C1CCc2cccc(O)c2C1 (centres unmarked) [Example 8-OH-DPAT, 8-hydroxy-2-(di-n-propylamino)tetralin, reference compound] | 1100 | – |
| CC1(C)CC(=O)N(CCCCN2CCN(c3ncccn3)CC2)C(=O)C1 [gepirone, reference compound] | – | 248 |
